Ab-14 light chain CDR variants: yeast mating affinities

Values reported by Engelhart et al. 2022, doi:10.1038/s41597-022-01779-4 (FLAb copy).

Binding partner: SARS-CoV-2 spike HR2 peptide, sequence PDVDLGDISGINAS.

Parent: Ab-14, a human scFv built as VH, the linker GGGGSGGGGSGGGGS, VL. Only the CDRs of the light chain vary.
VH: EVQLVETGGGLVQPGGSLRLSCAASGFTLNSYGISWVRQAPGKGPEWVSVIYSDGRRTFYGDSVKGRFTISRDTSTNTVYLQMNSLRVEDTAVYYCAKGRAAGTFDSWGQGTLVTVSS
VL: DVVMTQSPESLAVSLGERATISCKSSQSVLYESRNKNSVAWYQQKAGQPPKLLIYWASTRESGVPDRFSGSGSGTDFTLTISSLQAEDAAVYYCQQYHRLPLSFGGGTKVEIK

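Phage display of a naive human antibody library on the peptide gave the parent. In library AAYL50, one, two or three CDR residues were substituted; doubles and triples were drawn at random. In AlphaSeq, yeast of one mating type display the scFv and yeast of the other type display the target. Binding brings cells together so that they mate, and sequencing counts the barcode pairs among the diploids. Each replicate has its own calibration line, from reference interactions of the BCL2 family. There are three technical replicates.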

The parent's light chain CDRs are KSSQSVLYESRNKNSVA, WASTRES, QQYHRLPLS; each variant's own CDRs replace them letter for letter.
Numbers give log10(Kd / nM), so 0 is 1 nM and 3 is 1 µM. Smaller is tighter.
Averages over replicates are reported, and they cover detected replicates only.
A pair that was not seen in any replicate is written "no signal"; this usually means weak binding, but a binder can also be missed.
Empty control strains, which show no peptide, gave a signal in 18% of pairings with library AAYL50; the median was 4.19 and 95% of these signals were weaker than 2.99. No background was subtracted.
For reference, the parent read 0.65 as the reference entry and 1.68 as a member of this library.

CDR-L1 | CDR-L2 | CDR-L3 | mean, log10 nM | detected
KSLQSVLYESLNANSVA | WASTRES | QQYHRLPLS | 1.61 | 3 of 3
KSSQSVLYESRNKNRVA | WASTRES | QHYHRLPCS | 3.20 | 3 of 3
KSSQSVLYVSTNKNNVA | WASTRES | QQYHRLPLS | 2.07 | 3 of 3
KSSQSVLYWSRNKVSVA | WASTKES | QQYHRLPLS | 3.98 | 1 of 3
KSSQSVLYESRNKNSVA | WASTWES | NQYHRLPLM | 3.49 | 2 of 3
KSSQSVLYESRYKNSVA | WASTRES | QQNHRLPLS | 3.78 | 1 of 3
KSSNSTLYESRNKNSVA | WASTRES | QQYHRLPLQ | 1.86 | 3 of 3
KSSQSVLYESRNKNSVA | NASTRES | QQYNRLWLS | no signal | 0 of 3
KSSQKVLYEQRNKNSVA | WLSTRES | QQYHRLPLS | 3.21 | 1 of 3
KSSQSVLYESRGKNSVA | CASTRES | QQNHRLPLS | 4.40 | 2 of 3
KSSQSVLYESRFKNSVA | WASTRLS | QQYHRLPLS | 0.83 | 3 of 3
KSSQSVLYESRNKVSVA | WASTRES | WQYHRLPLS | 5.19 | 2 of 3
KSSQSILYCSRNKNSVA | WASTRES | QQYHRLGLS | no signal | 0 of 3
KSSQSVLYESRNKNSVR | WNSTRES | QQYHRLPQS | 4.27 | 2 of 3
KSSQSVLCESRNKNSVA | GASTRES | SQYHRLPLS | 1.79 | 3 of 3
KSSQSVLYESRNENSVV | WASTHES | QQYHRLPLS | 4.44 | 1 of 3
KSSTSVLYESRNTNSVA | WASTRES | QQYRRLPLS | 0.63 | 3 of 3
KSSQSMLYESRNKNSVA | WASTRFS | QQYHRVPLS | 4.14 | 3 of 3
KSSQSVLYESRNKNSVA | CATWRES | QQYHRLPLS | 2.32 | 3 of 3
KSSQSVLFESRNKNSVA | WASTRPS | QQEHRLPLS | 1.17 | 3 of 3
KLSQSVVYESRNKYSVA | WASTRES | QQYHRLPLS | 0.03 | 3 of 3
KSSQSVKYESRNKSSVA | WASTREM | QQYHRLPLS | 2.10 | 3 of 3
KSSQSMLYESRNKNSVA | WASTRES | AQYHELPLS | 2.09 | 3 of 3
KSSQSSLYESRNKNSVE | WASTREV | QQYHRLPLS | 4.67 | 1 of 3
KSSVSVLYESRNKNSVN | WASTRES | QQYLRLPLS | 4.76 | 2 of 3
KSHQSVLYDSRNKNYVA | WASTRES | QQYHRLPLS | 1.96 | 3 of 3
KSSQSVKYESRNKNSVA | WASTRES | YEYHRLPLS | 2.77 | 1 of 3
KSSQSVLYESRNSNSVL | HASTRES | QQYHRLPLS | no signal | 0 of 3
KSSQSVLDESRNKNSVA | WASTREL | KQYHRLPLS | 4.71 | 2 of 3
KSSFSVLYESRNKESVA | WASTRES | QQYHRLPLS | 2.19 | 3 of 3
YSSQSALYESRDKNSVA | WASTRES | QQYHRLPLS | 1.83 | 3 of 3
KSSQSVLYESLNKNSVA | WASTRES | QQYLRLPRS | 5.18 | 2 of 3
KSSQSVLKESRNKASVA | WASTRES | QQYHRLPFS | 2.15 | 3 of 3
KSSQSVLYESRNKNSVA | WAKTEES | QQYHRLPLH | 5.17 | 2 of 3
KSSQSVLYEQRNKNSVA | WGETRES | QQYHRLPLS | 1.13 | 3 of 3
YSSQSVLYESRHKNSVA | WASIRES | QQYHRLPLS | no signal | 0 of 3
KCSQSVLYESRNKNSVA | WASMRES | QQYIRLPLS | 1.15 | 3 of 3
KSSCSVLYESRNKNSVA | WISTRES | QQYHRAPLS | 5.21 | 2 of 3
KSSQSVLYESRNKNSVA | TISTREY | QQYHRLPLS | 3.05 | 3 of 3
KSSQSVLYESRNLNSVA | WASTREE | QQYHRLPDS | 4.52 | 1 of 3
KSSQSMLYESRNKNSVA | WAQTRET | QQYHRLPLS | 1.86 | 3 of 3
QSSQSVLYESRNKNSVA | WAPTRES | QQCHRLPLS | no signal | 0 of 3
KSSQSVYWESRNMNSVA | WASTRES | QQYHRLPLS | 1.17 | 3 of 3
KSSQSVLYEQRNKNSVH | WAETRES | QQYHRLPLS | 3.08 | 1 of 3
KSSQSVLYEKRNKNSVA | WASTCES | QQYHRLYLS | 4.79 | 1 of 3
KSSQSVDYESRTKNSVA | WASTREL | QQYHRLPLS | no signal | 0 of 3
KSQQSVLYESRNKNSVA | WASTDES | QQYHRLALS | no signal | 0 of 3
KSSQMVLYHSRNKNSVA | WASTREP | QQYHRLPLS | 2.37 | 3 of 3
KSSQSVLYESRNKNSVA | WASEDCS | QQYHRLPLS | 4.56 | 3 of 3
KSSQSVLYESRNKNSVA | CASTRGS | QQYSRLPLS | 1.70 | 3 of 3
KSSQSVLYESRNKNSVA | EASTRTS | QQYHGLPLS | 0.40 | 3 of 3
KSSQSVLYESRPKNSVA | WASTRES | QQYTRQPLS | 1.94 | 3 of 3
KCSQSVLYESRNKNSVA | WAHTRES | QQYHRLPLL | 1.21 | 3 of 3
KSSQSVAYESRNKNSVQ | WASTRTS | QQYHRLPLS | 3.98 | 1 of 3
KSSQSVLYNSRNKNSVA | WADTRSS | QQYHRLPLS | 1.26 | 3 of 3
KSSQSVLYESRNKNSVA | WLSTRES | QQYHRLPLC | 2.64 | 2 of 3
KSSHTVLYESRNKNSVA | WASTREH | QQYHRLPLS | 1.71 | 3 of 3
KSSQSELYESFNKNSVA | WASTDES | QQYHRLPLS | 3.90 | 2 of 3
KSSLSVLYESRNKNSVA | HASTRES | QQYHRLPLE | 1.52 | 3 of 3
KSSQSVLYESRNKNSVA | WASTKED | QQGHRLPLS | no signal | 0 of 3
KESQSVLYEVRNKNSVA | WASTRES | QQYHQLPLS | 3.78 | 3 of 3
KSVQSMLYESRNKNSVA | WASTRES | QQYHRLNLS | no signal | 0 of 3
KSSQSVLYEQRNKNSVT | WASTRYS | QQYHRLPLS | no signal | 0 of 3
KSSQSVLYESRNKNSSA | WNSTRES | QQYHRLPLF | no signal | 0 of 3
ESSQSVLYESENKNSVA | WASTRES | QQYHILPLS | 2.53 | 3 of 3
KSSQSVLWESRNKNSVA | KASTREN | QQYHRLPLS | 0.76 | 3 of 3
KSSQSVLYESRNKNSVA | CASWRES | QQYHYLPLS | 5.00 | 2 of 3
KSSQSVLYESKNKNSVA | WASTRES | QQYKRQPLS | 3.17 | 1 of 3
KVSQKVNYESRNKNSVA | WASTRES | QQYHRLPLS | 0.07 | 3 of 3
KSSQSVLYESRNKNSVA | WKSTIES | QQYHRLPLP | 4.72 | 3 of 3
KWSQSVLYESRNKGSVA | WASTRES | QQYHTLPLS | 1.94 | 3 of 3
KSSQSVLYESRNKNSVA | WAATRES | QTYIRLPLS | no signal | 0 of 3
KSSQHVTYASRNKNSVA | WASTRES | QQYHRLPLS | 1.46 | 3 of 3
KSQQSVLYESRNKNSVA | WASTRES | KQPHRLPLS | 5.05 | 1 of 3
YSSQDVLYESRNKNSVA | WASTRES | QQYHRLPLS | 1.23 | 3 of 3
KSSQSVLYESRNKNSVA | WESTRES | QSYHRLPLS | 4.56 | 1 of 3
KSSQSVLYASRNKNSVA | WASTRES | QQYFRLPLH | 1.45 | 3 of 3
KSSQSVLLESRNKNSVA | WASTRES | GQYHRLILS | 1.19 | 3 of 3
KSVQSVLYESRNKNSVA | WASTRKS | QQYHRDPLS | no signal | 0 of 3
KSSQSVLYESVNKNSVA | WALTRES | QQYCRLPLS | 2.78 | 3 of 3

The opening 5 entries, copied out:

CDR-L1	CDR-L2	CDR-L3	mean, log10 nM	detected
KSLQSVLYESLNANSVA	WASTRES	QQYHRLPLS	1.61	3 of 3
KSSQSVLYESRNKNRVA	WASTRES	QHYHRLPCS	3.20	3 of 3
KSSQSVLYVSTNKNNVA	WASTRES	QQYHRLPLS	2.07	3 of 3
KSSQSVLYWSRNKVSVA	WASTKES	QQYHRLPLS	3.98	1 of 3
KSSQSVLYESRNKNSVA	WASTWES	NQYHRLPLM	3.49	2 of 3